This passage reports IC50 results from publication PMC11694131 (Haematologica, 2024).

Protein sequences, listed by entry. Tags and fused reporters are not part of them.
UniProt P10415, whole entry: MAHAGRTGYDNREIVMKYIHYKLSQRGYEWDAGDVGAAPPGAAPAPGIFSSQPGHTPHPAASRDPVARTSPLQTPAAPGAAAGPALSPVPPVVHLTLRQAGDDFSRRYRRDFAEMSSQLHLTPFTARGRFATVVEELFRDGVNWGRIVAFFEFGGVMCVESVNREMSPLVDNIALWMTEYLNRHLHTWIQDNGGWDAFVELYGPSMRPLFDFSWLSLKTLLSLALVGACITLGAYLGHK

The test addresses BCL2 (Homo sapiens, UniProt P10415). As to the kind of experiment: biochemical. The class given is binding.

The structures appear in SMILES notation.

Usually IC50 stands for the point on the concentration scale where inhibition reaches its midpoint. Read a high IC50 as weaker potency in that assay. For `CC1(C)CCC(c2ccc(Cl)cc2)=C(CN2CCN(c3ccc(C(=O)NS(=O)(=O)c4ccc(N[C@H](CCN5CCOCC5)CSc5ccccc5)c(S(=O)(=O)C(F)(F)F)c4)cc3)CC2)C1` [navitoclax], the IC50 was determined as 0.75 nM.
